In ChEMBL document CHEMBL4834454, “Rational design of cannabinoid type-1 receptor allosteric modulators: Org27569 and PSNCBAM-1 hybrids” (Bioorg Med Chem, 2021) one finds pIC50 data, which are given here for one compound.

Sequences of proteins named here, by UniProt entry; tags and fusion partners are left off.
UniProt P21554, whole entry: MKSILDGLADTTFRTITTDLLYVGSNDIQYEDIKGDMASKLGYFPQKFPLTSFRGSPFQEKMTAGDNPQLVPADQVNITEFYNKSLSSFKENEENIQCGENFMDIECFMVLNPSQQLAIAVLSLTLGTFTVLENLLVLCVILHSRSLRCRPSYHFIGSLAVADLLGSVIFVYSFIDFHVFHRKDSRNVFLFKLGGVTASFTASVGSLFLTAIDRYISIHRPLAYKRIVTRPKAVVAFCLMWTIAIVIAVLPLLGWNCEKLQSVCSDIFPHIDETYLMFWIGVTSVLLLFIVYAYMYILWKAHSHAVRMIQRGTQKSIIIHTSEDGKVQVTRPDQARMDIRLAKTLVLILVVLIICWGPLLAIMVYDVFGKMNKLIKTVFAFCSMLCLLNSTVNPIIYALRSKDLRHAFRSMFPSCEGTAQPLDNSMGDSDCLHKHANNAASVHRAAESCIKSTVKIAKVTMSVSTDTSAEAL

In the assay the target is Cannabinoid receptor 1 (Homo sapiens, UniProt P21554). Kind of assay: Allosteric antagonist activity at N-terminal 3HA-tagged human CB1 receptor expressed in HEK293 cells assessed as reduction in CP55940-stimulated inhibition of forskolin-induced cAMP accumulation measured for 20 mins by BRET assay. The format is functional, cell-based. Summed up:
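HEK293 cells stably expressing 3HA-tagged hCB1, transiently transfected with CAMYEL BRET cAMP sensor, plated at 60,000 cells/well, serum-starved 30 min. Coelenterazine H 5 µM final, added 5 min before co-addition of forskolin 5 µM, CP55,940 1 µM and serially diluted modulator. BRET read at 37°C about 20 min. […] 3-parameter fit, three independent experiments.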

With `O=C(Nc1ccc(Cl)cc1)Nc1cccc(-c2cccc(N3CCCC3)n2)c1`, the pIC50 stood at 6.4.
